Source: US11174252B2, “Heterocyclic compounds as kinase inhibitors” (priority 2018, dated 2021)

By UniProt entry, the sequences of proteins in these tests, tags left out. Where a name states a change or a piece, a line headed by the entry shows the natural chain unless it says otherwise. Residues count along the entry.
UniProt P11802: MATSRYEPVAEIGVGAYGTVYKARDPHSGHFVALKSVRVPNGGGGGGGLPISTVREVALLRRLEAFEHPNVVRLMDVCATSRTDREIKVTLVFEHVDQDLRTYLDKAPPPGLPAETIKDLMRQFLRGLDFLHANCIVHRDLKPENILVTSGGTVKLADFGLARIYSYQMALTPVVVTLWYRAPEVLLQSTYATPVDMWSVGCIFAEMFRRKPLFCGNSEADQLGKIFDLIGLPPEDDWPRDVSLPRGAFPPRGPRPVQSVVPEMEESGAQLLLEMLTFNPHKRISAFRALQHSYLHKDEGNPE
UniProt P07333, 20-972: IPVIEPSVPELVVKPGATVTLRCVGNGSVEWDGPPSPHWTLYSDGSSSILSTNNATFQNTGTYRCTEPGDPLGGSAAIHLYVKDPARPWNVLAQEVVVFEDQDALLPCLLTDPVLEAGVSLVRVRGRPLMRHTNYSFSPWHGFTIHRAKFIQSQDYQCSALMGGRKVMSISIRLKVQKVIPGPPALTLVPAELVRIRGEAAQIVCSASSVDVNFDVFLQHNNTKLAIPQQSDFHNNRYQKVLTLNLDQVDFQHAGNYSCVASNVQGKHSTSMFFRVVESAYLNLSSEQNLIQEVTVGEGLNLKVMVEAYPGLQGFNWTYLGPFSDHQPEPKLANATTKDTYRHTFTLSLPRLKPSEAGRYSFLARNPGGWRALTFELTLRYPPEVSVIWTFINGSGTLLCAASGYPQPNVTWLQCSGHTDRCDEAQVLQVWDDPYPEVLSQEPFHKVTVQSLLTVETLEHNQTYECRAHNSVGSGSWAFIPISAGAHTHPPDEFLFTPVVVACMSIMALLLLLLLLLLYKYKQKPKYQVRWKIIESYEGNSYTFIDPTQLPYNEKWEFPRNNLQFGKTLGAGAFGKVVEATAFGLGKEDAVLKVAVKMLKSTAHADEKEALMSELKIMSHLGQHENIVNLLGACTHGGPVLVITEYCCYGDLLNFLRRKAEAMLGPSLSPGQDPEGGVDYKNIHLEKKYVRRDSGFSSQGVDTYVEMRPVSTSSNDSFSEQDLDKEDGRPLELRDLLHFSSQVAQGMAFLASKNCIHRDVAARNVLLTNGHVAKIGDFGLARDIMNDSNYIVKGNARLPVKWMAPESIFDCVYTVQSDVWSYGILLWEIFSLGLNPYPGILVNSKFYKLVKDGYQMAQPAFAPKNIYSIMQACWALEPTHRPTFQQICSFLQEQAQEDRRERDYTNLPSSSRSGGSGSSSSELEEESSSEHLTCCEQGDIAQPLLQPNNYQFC

Tests used:
Type in all cases: biochemical
CDK4 = CDK4 (Homo sapiens (Human), UniProt P11802); assay: In vitro kinase inhibition, luminescence (ADP-Glo) with retinoblastoma substrate
CDK6 = CDK6 (Homo sapiens (Human), UniProt Q00534); assay: biochemical; settings: read-out: CDK6 IC50
FMS kinase = FMS kinase (Homo sapiens (Human), UniProt P07333); assay: LanthaScreen kinase assay (ATP, fluorescent-PolyGT substrate, TR-FRET)

Compound	IC50 (CDK4) [nM]	IC50 (CDK6) [nM]	IC50 (FMS kinase) [nM]
CC(C)N1CCOc2c(F)cc(-c3nc(Nc4ccc5c(c4)CNCC5)ncc3F)cc21 [Compound 16, N-(5-fluoro-4-(8-fluoro-4-isopropyl-3,4-dihydro-2H-benzo[b][1,4]oxazin-6-yl)pyrimidin-2-yl)-1,2,3,4-tetrahydroisoquinolin-7-amine]	1	1	
CC(C)N1CCOc2c(F)cc(-c3nc(Nc4ccc(C5CCNCC5)c(F)c4)ncc3F)cc21 [Compound 18, 5-fluoro-N-(3-fluoro-4-(piperidin-4-yl)phenyl)-4-(8-fluoro-4-isopropyl-3,4-dihydro-2H-benzo[b][1,4]oxazin-6-yl) pyrimidin-2-amine]	10	15	
CC(C)N1CCc2ccc(Nc3ncc(F)c(-c4cc(F)c5c(c4)N(C(C)C)CCO5)n3)cc2C1 [Compound 19, N-(5-fluoro-4-(8-fluoro-4-isopropyl-3,4-dihydro-2H-benzo[b][1,4]oxazin-6-yl)pyrimidin-2-yl)-2-isopropyl-1,2,3,4-tetrahydroisoquinolin-7-amine]	1	1	
CC(C)N1CCc2c(cccc2Nc2ncc(F)c(-c3cc(F)c4c(c3)N(C(C)C)CCO4)n2)C1 [Compound 20, N-(5-fluoro-4-(8-fluoro-4-isopropyl-3,4-dihydro-2H-benzo[b][1,4]oxazin-6-yl)pyrimidin-2-yl)-2-isopropyl-, 2,3,4-tetrahydroisoquinolin-5-amine]	95	187	
CC(C)N1CCOc2c(F)cc(-c3nc(Nc4ccc(N5CCNCC5)c(C#N)c4)ncc3F)cc21 [Compound 21, 5-((5-fluoro-4-(8-fluoro-4-isopropyl-3,4-dihydro-2H-benzo[b][1,4]oxazin-6-yl)pyrimidin-2-yl)amino)-2-(piperazin-1-yl) benzonitrile]	6	8	
CC(C)N1CCc2cc(Nc3ncc(F)c(-c4cc(F)c5c(c4)N(C(C)C)CCO5)n3)ccc2C1 [Compound 22, N-(5-fluoro-4-(8-fluoro-4-isopropyl-3,4-dihydro-2H-benzo[b][1,4]oxazin-6-yl)pyrimidin-2-yl)-2-isopropyl-1,2,3,4-tetrahydroisoquinolin-6-amine]	2	2	
CC(C)N1CCOc2c(F)cc(-c3nc(Nc4ccc(N5CCNCC5)nc4)ncc3F)cc21 [Compound 23, 5-fluoro-4-(8-fluoro-4-isopropyl-3,4-dihydro-2H-benzo[b][1,4]oxazin-6-yl)-N-(6-(piperazin-1-yl)pyridin-3-yl)pyrimidin-2-amine]	2	2	
CC(C)N1CCOc2c(F)cc(-c3nc(Nc4ccc(N5CCNCC5)c(F)c4F)ncc3F)cc21 [Compound 28, N-(2,3-difluoro-4-(piperazin-1-yl)phenyl)-5-fluoro-4-(8-fluoro-4-isopropyl-3,4-dihydro-2H-benzo[b][1,4]oxazin-6-yl)pyrimidin-2-amine]	1	11	
COc1cc(Nc2ncc(F)c(-c3cc(F)c4c(c3)N(C(C)C)CCO4)n2)ccc1N1CCNCC1 [Compound 29, 5-fluoro-4-(8-fluoro-4-isopropyl-3,4-dihydro-2H-benzo[b][1,4]oxazin-6-yl)-N-(3-methoxy-4-(piperazin-1-yl)phenyl)pyrimidin-2-amine]	1	13	
CC(C)N1CCOc2c(F)cc(-c3nc(Nc4cc(F)c(N5CCNCC5)cc4F)ncc3F)cc21 [Compound 31, N-(2,5-difluoro-4-(piperazin-1-yl)phenyl)-5-fluoro-4-(8-fluoro-4-isopropyl-3,4-dihydro-2H-benzo[b][1,4]oxazin-6-yl)pyrimidin-2-amine]	2.5	32	
CC(C)N1CCOc2c(F)cc(-c3nc(Nc4ccc5c(c4)CC(N(C)C)C5)ncc3F)cc21 (stereo not drawn) [Compound 37, N^5-(5-fluoro-4-(8-fluoro-4-isopropyl-3,4-dihydro-2H-benzo[b][1,4]oxazin-6-yl)pyrimidin-2-yl)-N^2,N^2-dimethyl-2,3-dihydro-1H-indene-2,5-diamine]	6.5	3.5	18
CC(C)N1CCOc2c(F)cc(-c3nc(Nc4ccn(C5=CCNCC5)c(=O)c4)ncc3F)cc21 [Compound 39, 4-((5-fluoro-4-(8-fluoro-4-isopropyl-3,4-dihydro-2H-benzo[b][1,4]oxazin-6-yl)pyrimidin-2-yl)amino)-1′,2′,3′,6′-tetrahydro-2H-[1,4′-bipyridin]-2-one]	4	7.5	
CC(C)N1CCOc2c(F)cc(-c3nc(Nc4ccc(N5CCC(N(C)C)CC5)cn4)ncc3F)cc21 [Compound 436, N-(5-(4-(dimethylamino)piperidin-1-yl)pyridin-2-yl)-5-fluoro-4-(8-fluoro-4-isopropyl-3,4-dihydro-2H-benzo[b][1,4]oxazin-6-yl)pyrimidin-2-amine]	1.5	2	
CC(C)N1CCOc2c(F)cc(-c3nc(Nc4ccc(N5CCCNCC5)cn4)ncc3F)cc21 [Compound 477, N-(5-(1,4-diazepan-1-yl)pyridin-2-yl)-5-fluoro-4-(8-fluoro-4-isopropyl-3,4-dihydro-2H-benzo[b][1,4]oxazin-6-yl)pyrimidin-2-amine]	3.5	4.5	
CC(C)N1CCOc2c(F)cc(-c3nc(Nc4ccc(N5CCC(CO)CC5)cn4)ncc3F)cc21 [Compound 485, (1-(6-((5-fluoro-4-(8-fluoro-4-isopropyl-3,4-dihydro-2H-benzo[b][1,4]oxazin-6-yl)pyrimidin-2-yl)amino)pyridin-3-yl)piperidin-4-yl)methanol]	7.5	22	
CC(C)N1CCOc2c(F)cc(-c3nc(Nc4ccc(N5CCN(CCO)CC5)cn4)ncc3F)cc21 [Compound 490, 2-(4-(6-((5-fluoro-4-(8-fluoro-4-isopropyl-3,4-dihydro-2H-benzo[b][1,4]oxazin-6-yl)pyrimidin-2-yl)amino)pyridin-3-yl)piperazin-1-yl)ethan-1-ol]	2	9.5	
CC(C)N1CCOc2c(F)cc(-c3nc(Nc4cc(C5CCN(C)CC5)no4)ncc3F)cc21 [Compound 495, N-(5-fluoro-4-(8-fluoro-4-isopropyl-3,4-dihydro-2H-benzo[b][1,4]oxazin-6-yl)pyrimidin-2-yl)-3-(1-methylpiperidin-4-yl)isoxazol-5-amine]	14	39	
CC(C)N1CCOc2c(F)cc(-c3nc(Nc4cc(C5CCN(C)CC5)n[nH]4)ncc3F)cc21 [Compound 499, 5-fluoro-4-(8-fluoro-4-isopropyl-3,4-dihydro-2H-benzo[b][1,4]oxazin-6-yl)-N-(3-(1-methylpiperidin-4-yl)-1H-pyrazol-5-yl)pyrimidin-2-amine]	15	26	
CC(C)N1CCOc2c(F)cc(-c3nc(Nc4cn(C5CCNCC5)cn4)ncc3F)cc21 [Compound 504, 5-fluoro-4-(8-fluoro-4-isopropyl-3,4-dihydro-2H-benzo[b][1,4]oxazin-6-yl)-N-(1-(piperidin-4-yl)-1H-imidazol-4-yl)pyrimidin-2-amine]	141	> 200	
